{"sequences": {"note": "Protein sequences, listed by entry. Tags and fused reporters are not part of them. Residues count along the entry.", "UniProt Q86WV6, 139-379 H232R limits assumed": "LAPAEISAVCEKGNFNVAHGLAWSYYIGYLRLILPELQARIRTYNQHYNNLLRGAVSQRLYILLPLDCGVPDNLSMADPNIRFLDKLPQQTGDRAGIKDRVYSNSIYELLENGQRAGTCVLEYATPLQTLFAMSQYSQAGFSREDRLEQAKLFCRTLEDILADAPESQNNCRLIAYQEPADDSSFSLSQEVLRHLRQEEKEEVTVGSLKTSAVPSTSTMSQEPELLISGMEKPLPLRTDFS"}, "source": "patent US11597746B2", "key": {"[1]": {"biological_target": "human STING (Homo sapiens (Human), UniProt Q86WV6, H232R)", "assay": "STING SPA binding assay", "details": "read-out: hSTING SPA IC50; displacement of [3H]-2′3′-cGAMP from biotinylated recombinant STING (residues 139-379, H232R); tested form: Na salt"}, "[2]": {"tested_on": "human STING pathway in THP1-ISG cells", "assay": "STING human cell reporter assay", "format": "cell-based", "details": "read-out: human cell reporter EC50, IRF-inducible SEAP reporter, 24 h, tested form: Na salt"}}}
{"smiles": "Nc1nc2c(ncn2[C@@H]2C[C@@H]3COP(=O)(O)O[C@H]4[C@@H](F)[C@H](n5cnc6c(N)ncnc65)O[C@@H]4CNS(=O)(=O)O[C@H]3[C@H]2O)c(=O)[nH]1", "values": [{"measurement": "IC50", "setting": "[1]", "result": 33.4, "unit": "µM"}]}
{"smiles": "COc1ccc(CO[C@@H]2[C@@H]3OS(=O)(=O)NC[C@H]4O[C@@H](n5cnc6c(N)ncnc65)[C@H](F)[C@@H]4OP(=O)(S)OC[C@H]3O[C@H]2n2cnc3c(N)ncnc32)cc1", "note": "(single isomer, unassigned)", "values": [{"measurement": "EC50", "setting": "[2]", "result": "> 100", "unit": "µM"}, {"measurement": "IC50", "setting": "[1]", "result": "> 100", "unit": "µM"}]}
{"smiles": "Nc1ncnc2c1ncn2[C@@H]1O[C@@H]2CNS(=O)(=O)O[C@H]3C[C@H](n4nnc5c(N)ncnc54)O[C@@H]3COP(=O)(O)O[C@H]2[C@H]1F", "values": [{"measurement": "EC50", "setting": "[2]", "result": "> 100", "unit": "µM"}, {"measurement": "IC50", "setting": "[1]", "result": "> 100", "unit": "µM"}]}
{"smiles": "Nc1nc2c(nnn2[C@H]2C[C@@H]3OS(=O)(=O)NC[C@H]4O[C@@H](n5cnc6c(N)ncnc65)[C@H](F)[C@@H]4OP(=O)(O)OC[C@H]3O2)c(=O)[nH]1", "values": [{"measurement": "EC50", "setting": "[2]", "result": 0.15, "unit": "µM"}, {"measurement": "IC50", "setting": "[1]", "result": 33.7, "unit": "µM"}]}
{"smiles": "Nc1ncnc2c1ncn2[C@@H]1O[C@@H]2CNS(=O)(=O)O[C@H]3[C@H]4OC[C@]3(COP(=O)(O)O[C@H]2[C@H]1F)O[C@H]4n1cnc2c(N)ncnc21", "values": [{"measurement": "EC50", "setting": "[2]", "result": 0.38, "unit": "µM"}, {"measurement": "IC50", "setting": "[1]", "result": 5.44, "unit": "µM"}]}
{"smiles": "Nc1nc2c(ncn2[C@H]2C[C@@H]3OS(=O)(=O)NC[C@H]4O[C@@H](n5cnc6c(N)ncnc65)[C@H](F)[C@@H]4OP(=O)(O)OC[C@H]3O2)c(=O)[nH]1", "values": [{"measurement": "EC50", "setting": "[2]", "result": 2.28, "unit": "µM"}]}
{"smiles": "Nc1ncnc2c1ncn2[C@@H]1O[C@@H]2CNS(=O)(=O)O[C@H]3[C@@H](F)[C@H](n4cnc5c(=O)[nH]cnc54)O[C@@H]3COP(=O)(O)O[C@H]2[C@H]1F", "values": [{"measurement": "EC50", "setting": "[2]", "result": 0.32, "unit": "µM"}, {"measurement": "IC50", "setting": "[1]", "result": 3.79, "unit": "µM"}]}
{"smiles": "Nc1ncnc2c1ncn2[C@@H]1O[C@@H]2CNS(=O)(=O)O[C@H]3C[C@H](n4cc(F)c5c(=O)[nH]cnc54)O[C@@H]3COP(=O)(O)O[C@H]2[C@H]1F", "values": [{"measurement": "EC50", "setting": "[2]", "result": "> 100", "unit": "µM"}, {"measurement": "IC50", "setting": "[1]", "result": "> 100", "unit": "µM"}]}
